Laboratory results as given in ChEMBL document CHEMBL1123735 (J Med Chem, 1987).

Key:
Cavia porcellus [1] = species: Cavia porcellus; experiment: (§1) Antimuscarinic activity was assayed for its ability to block the acetyl-choline induced contraction of the guinea pig ileum; type: functional
Cavia porcellus [2] = species: Cavia porcellus; experiment: as §1

## CCN(CC)CCOC(=O)C(O)(c1ccccc1)c1ccccc1 [BENACTYZINE]
Cavia porcellus [1]
  pA2: 8.2
Cavia porcellus [2]
  Kb: 6.5 nM
